Ab-14 light chain CDR variants: yeast mating affinities

Reference: Engelhart et al. 2022, doi:10.1038/s41597-022-01779-4. File: FLAb, binding data.

Target: peptide PDVDLGDISGINAS, taken from heptad repeat 2 (HR2) of SARS-CoV-2 spike.

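The starting antibody came from a phage panning campaign against this peptide. AAYL50 was designed without a model: most single CDR substitutions and a random sample of double and triple ones. AlphaSeq pools MATa yeast showing the antibodies with MATalpha yeast showing the peptide. Mating (16 h, 30 °C) was followed by selection of diploids and sequencing of their barcodes. The ratio of observed to expected reads was calibrated, replicate by replicate, on BCL2-family standards whose Kd was known from biolayer interferometry. Each pool was mated in three replicate cultures.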

Each scFv is VH, a (GGGGS)3 linker, VL, as in the parent Ab-14, and differs from it in the CDRs of the light chain only.
VH: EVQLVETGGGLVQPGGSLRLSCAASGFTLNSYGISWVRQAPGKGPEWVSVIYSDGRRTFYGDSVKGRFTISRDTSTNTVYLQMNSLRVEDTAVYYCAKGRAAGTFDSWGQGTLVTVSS
VL: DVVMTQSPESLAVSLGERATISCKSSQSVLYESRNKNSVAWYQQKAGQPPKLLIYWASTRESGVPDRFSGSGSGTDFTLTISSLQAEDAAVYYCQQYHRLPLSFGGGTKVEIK

Substitutions are numbered in sequence along the VL above, starting at 1 (not Kabat).
Values are log10 of the apparent Kd in nM; lower means stronger binding.
Replicates are averaged; those with no signal do not enter the mean.
"nd" marks a missing value. The strain was present, yet no cells mated with the target were sequenced in that replicate, which points to weak or no binding.

| # | changes | log10 Kd (nM) by replicate | log10 Kd (nM), mean | signal with controls |
|---|---|---|---|---|
| 1 | S33K+S58L+Y97T | 3.32 nd nd | 3.32 | 1 of 9 (3.63) |
| 2 | R60Y+H98L+P101V | nd 3.60 5.25 | 4.43 | 4 of 9 (3.95) |
| 3 | E32C+S62G+R99A | nd nd nd | nd | 0 of 9 |
| 4 | Y31T+K36V+P101N | 2.38 2.51 2.94 | 2.61 | 1 of 9 (4.25) |
| 5 | Q27E+V29K+T59D | 2.08 2.01 2.31 | 2.13 | 2 of 9 (4.14) |
| 6 | L30P+N35R+S38T | 3.92 3.27 nd | 3.59 | 1 of 9 (3.72) |
| 7 | A57F+L102N | 5.92 4.24 nd | 5.08 | 1 of 9 (4.12) |
| 8 | K24A+A57D | 5.06 nd nd | 5.06 | 4 of 9 (4.51) |
| 9 | K24W+S33N+H98D | 3.09 3.09 2.61 | 2.93 | 1 of 9 (4.48) |
| 10 | N37R+Q96I+Y97S | 1.41 1.40 3.37 | 2.06 | 0 of 9 |
| 11 | A57D+S58G+S62F | nd nd nd | nd | 1 of 9 (4.44) |
| 12 | Q27N+Y31Q+R99Q | nd nd nd | nd | 1 of 9 (3.55) |
| 13 | S25Y+S28C+Q95D | 3.24 nd 2.56 | 2.90 | 2 of 9 (3.53) |
| 14 | S28H+A40T | nd nd 2.73 | 2.73 | 3 of 9 (4.21) |
| 15 | Q27K+S33R+N35Q | 2.41 2.14 3.19 | 2.58 | 2 of 9 (3.37) |
| 16 | S26R+S58W | nd nd 4.44 | 4.44 | 0 of 9 |
| 17 | V39S+Q95Y+Q96A | nd nd 3.76 | 3.76 | 5 of 9 (4.35) |
| 18 | S26D+S28E+E32K | 2.03 2.19 3.25 | 2.49 | 1 of 9 (3.80) |
| 19 | E61W+S62E | 0.58 0.73 0.64 | 0.65 | 4 of 9 (4.02) |
| 20 | R34F+R99H+L100I | 1.92 1.41 1.43 | 1.58 | 0 of 9 |
| 21 | S26L+Q95F+H98T | 3.20 5.43 3.44 | 4.03 | 4 of 9 (4.06) |
| 22 | N37Q+T59S+Q96T | nd 3.85 nd | 3.85 | 4 of 9 (3.61) |
| 23 | S26D+Q27N+A40Y | 4.05 nd nd | 4.05 | 2 of 9 (4.31) |
| 24 | S25F+E61S+P101Y | nd nd nd | nd | 0 of 9 |
| 25 | S28T+L100W+L102E | 0.72 0.97 0.79 | 0.83 | 1 of 9 (3.21) |
| 26 | L30C+R34W+K36L | 1.32 1.52 1.56 | 1.47 | 2 of 9 (4.01) |
| 27 | S25Y+Q95W | nd nd 4.37 | 4.37 | 1 of 9 (4.44) |
| 28 | W56L+R60P+H98S | 2.89 3.36 2.51 | 2.92 | 0 of 9 |
| 29 | E32R+T59W+P101L | nd nd 3.27 | 3.27 | 0 of 9 |
| 30 | S28F+K36R+Q95C | nd nd nd | nd | 0 of 9 |
| 31 | K36S+Q95T+R99N | 1.31 1.40 1.36 | 1.36 | 6 of 9 (4.55) |
| 32 | S28I+L100T+S103L | nd nd nd | nd | 0 of 9 |
| 33 | S33F+T59V | 1.14 1.22 1.23 | 1.20 | 0 of 9 |
| 34 | Q27Y+K36C+S38N | 0.71 0.89 0.84 | 0.81 | 2 of 9 (4.29) |
| 35 | K24H+S25L+Q95V | 1.96 1.57 1.57 | 1.70 | 1 of 9 (4.07) |
| 36 | S25N+Q27C+L100S | 2.87 3.06 2.94 | 2.96 | 1 of 9 (4.00) |
| 37 | K24F+S33L+H98C | nd 3.62 nd | 3.62 | 3 of 9 (4.11) |
| 38 | N37P+S38H+P101M | 4.97 3.74 3.98 | 4.23 | 5 of 9 (4.78) |
| 39 | L30H+Q95H+S103P | 2.20 2.91 2.80 | 2.64 | 2 of 9 (3.90) |
| 40 | V29M+W56M+L102T | nd nd nd | nd | 0 of 9 |
| 41 | N35R+W56P+H98T | nd nd nd | nd | 3 of 9 (4.87) |
| 42 | Y31R+N37R+A40Y | 6.10 nd nd | 6.10 | 0 of 9 |
| 43 | A40T+Q96G+S103K | nd nd nd | nd | 1 of 9 (3.38) |
| 44 | S58G+T59I+L102C | nd 3.50 nd | 3.50 | 0 of 9 |
| 45 | S25E+R34S+V39H | nd nd nd | nd | 1 of 9 (4.06) |
| 46 | S28T+K36A+S103Y | 5.26 nd 5.25 | 5.26 | 3 of 9 (4.90) |
| 47 | S25R+N35D+W56I | nd nd nd | nd | 0 of 9 |
| 48 | L30I+S33E+Y97W | nd nd nd | nd | 0 of 9 |
| 49 | S26E+S38V+E61Y | nd 4.12 nd | 4.12 | 1 of 9 (4.26) |

A selection of 7 entries from above:

{"changes": "N35R+W56P+H98T", "log10 Kd (nM) by replicate": "nd nd nd", "log10 Kd (nM), mean": "nd", "signal with controls": "3 of 9 (4.87)"}
{"changes": "L30C+R34W+K36L", "log10 Kd (nM) by replicate": "1.32 1.52 1.56", "log10 Kd (nM), mean": "1.47", "signal with controls": "2 of 9 (4.01)"}
{"changes": "L30I+S33E+Y97W", "log10 Kd (nM) by replicate": "nd nd nd", "log10 Kd (nM), mean": "nd", "signal with controls": "0 of 9"}
{"changes": "S25E+R34S+V39H", "log10 Kd (nM) by replicate": "nd nd nd", "log10 Kd (nM), mean": "nd", "signal with controls": "1 of 9 (4.06)"}
{"changes": "E32R+T59W+P101L", "log10 Kd (nM) by replicate": "nd nd 3.27", "log10 Kd (nM), mean": "3.27", "signal with controls": "0 of 9"}
{"changes": "A57F+L102N", "log10 Kd (nM) by replicate": "5.92 4.24 nd", "log10 Kd (nM), mean": "5.08", "signal with controls": "1 of 9 (4.12)"}
{"changes": "E32C+S62G+R99A", "log10 Kd (nM) by replicate": "nd nd nd", "log10 Kd (nM), mean": "nd", "signal with controls": "0 of 9"}

Three control strains display no target. For library AAYL50, 18% of the pairings with them gave a signal, with a median of 4.19 and one signal in twenty below 2.99, so weak values seen in few replicates may be background. Also given: how often the same scFv was detected with the empty control strains, with their mean in brackets.